From patent US20110224205A1 (NATIONAL TAIWAN UNIVERSITY, priority 2010, published 2011)

What was measured:
[1] = test system: EGFR, pEGFR, AKT, pAKT in CL1-5 cells; assay: Western blot EGFR signaling, CL1-5; type: cell-based, human; details: gefitinib 1 μM alone, curcumin 10 and 15 μM alone, or gefitinib 1 μM + curcumin 15 μM
[2] = test system: EGFR, pEGFR, AKT, pAKT in A549 cells; assay: Western blot EGFR signaling, A549; type: cell-based, human; details: gefitinib 1 μM alone, curcumin 10 and 15 μM alone, or gefitinib 1 μM + curcumin 15 μM
[3] = test system: EGFR protein in lung adenocarcinoma cells; assay: EGFR degradation (Western blot) and ubiquitination (immunoprecipitation); type: cell-based; details: gefitinib 10 μM alone; or gefitinib 1 μM + curcumin 10 μM
[4] = test system: pEGFR, pAKT in H1299 cells; assay: Western blot EGFR signaling, H1299; type: cell-based, human; details: gefitinib 1 μM alone, curcumin 10 and 15 μM alone, or gefitinib 1 μM + curcumin 15 μM

## COc1cc2ncnc(Nc3ccc(F)c(Cl)c3)c2cc1OCCCN1CCOCC1 [gefitinib, N-(3-Chloro-4-fluoro-phenyl)-7-methoxy-6-(3-morpholin-4-ylpropoxy)quinazolin-4-amine, reference compound]
[1]
  pEGFR and pAKT (FIG. 4B): minimal suppressive effect
[2]
  pEGFR and pAKT (FIG. 4B): minimal suppressive effect
[3]
  EGFR ubiquitination: didn't alter the EGFR ubiquitin level
[4]
  pEGFR and pAKT (FIG. 4B): minimal suppressive effect
